Data published in PubChem BioAssay AID1304 (The Scripps Research Institute Molecular Screening Center, 2008).
The entries are a selection whose mix differs from that of the whole data set. Activity calls are given as the source filed them. Rule as the data show it: active = activation above about 33% (passing the limit was not always enough); inactive = the rest.

By UniProt entry, the sequences of proteins in these tests, tags left out.
UniProt P25929, whole entry, looked up: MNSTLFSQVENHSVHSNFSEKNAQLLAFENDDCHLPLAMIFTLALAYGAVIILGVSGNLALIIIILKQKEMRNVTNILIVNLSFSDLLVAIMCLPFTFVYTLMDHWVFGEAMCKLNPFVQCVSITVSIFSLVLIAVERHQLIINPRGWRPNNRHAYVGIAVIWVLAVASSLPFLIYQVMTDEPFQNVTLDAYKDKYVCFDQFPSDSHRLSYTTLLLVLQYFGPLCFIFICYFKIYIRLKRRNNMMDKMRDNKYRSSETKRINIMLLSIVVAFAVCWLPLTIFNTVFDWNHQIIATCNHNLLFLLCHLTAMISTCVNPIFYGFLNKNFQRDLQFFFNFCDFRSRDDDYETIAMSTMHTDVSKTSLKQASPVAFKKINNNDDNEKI

The compounds below were run against Neuropeptide Y receptor type 1 (Homo sapiens) (UniProt P25929) (assay: NPY-Y1 receptor potentiators or agonists, primary screen, cell-based (AID 1304;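 also: cells stimulated with NPY at EC10 then isoproterenol at EC100; 0% = low agonist plus stimulus and 100% = saturating agonist plus stimulus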)). Settings: NPY-Y1 expressing cells, potentiator/agonist activation; at 3.6 µM; hits give high values.

Structure (SMILES) | activation
Cc1ccc(OP(=O)(Nc2ccc([N+](=O)[O-])cn2)Oc2ccc(C)cc2)cc1 | inactive: 12.6%
C[As](=O)(O)c1cccc(C(=O)O)c1 | inactive: 17.9%
O=[As](O)(c1ccc(O)cc1)c1ccccc1O | inactive: 4.48%
O=[N+]([O-])c1cc([N+](=O)[O-])c(-c2ccn[nH]2)s1 | inactive: 16.2%
CC(C)NC(=O)NP(=O)(Oc1ccccc1)Oc1ccccc1 | inactive: -10.2%
CCN(CC)C(=S)SC(NC=O)C(Cl)(Cl)Cl (centres undefined) | inactive: -2.9%
CC(C)c1ccc(OP(=O)(Nc2ccccn2)Oc2ccccc2F)cc1 (centres undefined) | inactive: 3.03%
ClCCSc1nnc(-c2cccnc2)o1 | inactive: -20.5%
COc1cc(I)ccc1[As](=O)(O)O | inactive: 11.6%
COc1ccc2nc(NP(=O)(c3ccccc3)c3ccccc3)sc2c1 | inactive: -1.63%
Cc1cc(=O)[nH]c(N[N+](=O)[O-])n1 | inactive: 17.6%
O=C(OC1CN2CCC1CC2)C12CC3CC(CC(C3)C1)C2 (centres undefined) | inactive: -31.2%
Cc1c2c(nc3ccccc13)SC(C(Cl)Cl)C2 (centres undefined) | inactive: -9.19%
COc1ccc(N/C(=N/P(=O)(N2CCOCC2)N2CCOCC2)N2CCOCC2)cc1 | inactive: 13%
O=C(COc1ccccc1)OC1CN2CCC1CC2 (centres undefined) | inactive: -1.85%
COP1(=S)c2c(C)nn(CCC#N)c2N=C(c2ccc(F)cc2)N1C (centres undefined) | inactive: 13.4%
CCC(C)N(CC(C)C)C(=S)SC(NC(C)=O)C(Cl)(Cl)Cl (centres undefined) | inactive: -7.27%
CCOC(=O)c1ccc(NC(=O)C(C)(CCl)SC)cc1 (centres undefined) | inactive: -11%
Cc1cc(SC(NC(=O)c2ccccc2)C(Cl)(Cl)Cl)nc(C(C)C)n1 (centres undefined) | inactive: -16.9%
CCOC(=O)Nc1ccc([As](=O)(O)O)c(O)c1 | inactive: 8.17%

Structure (SMILES) | activation
O=[N+]([O-])c1ccc(Nc2ccc(Oc3ccc([N+](=O)[O-])cc3[N+](=O)[O-])cc2)c([N+](=O)[O-])c1 | inactive: 16.9%
O=P(Nc1ccccn1)(c1cccc2ccccc12)c1cccc2ccccc12 | inactive: 6.91%
Cc1cc(SC(NC=O)C(Cl)(Cl)Cl)ncn1 (centres undefined) | inactive: -8.52%
CCOC(=O)Nc1cccc([As](=O)(O)O)c1 | inactive: -11.3%
O=C(/C=C/c1ccccc1)OC1CN2CCC1CC2 (centres undefined) | inactive: -9.29%
CN(C)C1(CNC(=O)c2ccc(S(C)(=O)=O)cc2)CCCCC1 | inactive: 21.3%
CC1CCC(C(C)C)C(OP(=O)(Nc2ccccn2)c2ccccc2)C1 (centres undefined) | inactive: 10.9%
Cc1nn(-c2ccccc2)c2c1P(=O)(N1CCOCC1)N(C)C(c1ccccc1)=N2 (centres undefined) | inactive: 7.68%
O=[As](O)(c1cccs1)c1cccs1 | inactive: 21.9%
Cc1ccc(OCC(=O)OC2CN3CCC2CC3)cc1 (centres undefined) | inactive: -15.6%
O=P1(Nc2ccc(Br)cn2)COc2ccccc2OC1 | inactive: 13.3%
Nc1cccc([As](=O)(O)c2ccccc2)c1 | inactive: -0.81%
O=P1(Nc2ncccn2)COc2ccccc2OC1 | inactive: 3.2%
CC(C)(C)C(=O)NC(Sc1ncccn1)C(Cl)(Cl)Cl (centres undefined) | inactive: 14.6%
Clc1n[nH]nc1-c1nn[nH][15n]1 | inactive: -9.02%
CCOP(=O)(Nc1ccc(C)cn1)OCC | inactive: 8.62%
O=P1(Nc2ccccn2)COc2ccccc2OC1 | inactive: -8%
CC1(CBr)Cn2c(nc3ccccc3c2=O)S1 (centres undefined) | inactive: -2.02%
O=[As](O)(c1ccccc1Br)c1ccccc1Br | inactive: 9.23%
CC(C)/C=N\N=C(\N)N[N+](=O)[O-] | inactive: 2.78%

Structure (SMILES) | activation
CN(C(=O)Cc1ccc(Cl)c(Cl)c1)[C@@H]1CCCC[C@H]1N1CCCC1 | inactive: 14.3%
Cc1cccc(OCC(=O)OC2CN3CCC2CC3)c1 (centres undefined) | inactive: -0.6%
O=[As](O)(c1cccc(O)c1)c1cccc(O)c1 | inactive: 10%
O=[As](O)(O)c1cccnc1 | inactive: -6.41%
COc1cc(C(=O)NCC2(N3CCOCC3)CCCCC2)cc(Cl)c1OC(C)C | inactive: 7.29%
O=C(OC1CN2CCC1CC2)c1ccc(Cl)cc1 (centres undefined) | inactive: -1.37%
CCOP(=O)(Nc1cccc2ccccc12)OCC | inactive: -13%
COc1cc(C2NCCC3(OCCO3)C2(C)C)cc(OC)c1OC (centres undefined) | inactive: -17%
CCCOP(=S)(Nc1nc(N)cc(=O)[nH]1)OCCC | inactive: 14.6%
Nc1cccc2c([As](=O)(O)O)cccc12 | inactive: 1.79%
Cc1ccc(NCCc2c([N+](=O)[O-])cc([N+](=O)[O-])cc2[N+](=O)[O-])cc1 | inactive: 21.2%
Nc1ccccc1[As](=O)(O)c1ccccc1 | inactive: 3.29%
O=C(O)COc1ccc([As](=O)(O)O)cc1[N+](=O)[O-] | inactive: 7.28%
CS(=O)(=O)c1cc([N+](=O)[O-])c2no[n+]([O-])c2c1 | inactive: -0.07%
O=P(Nc1nccs1)(Oc1ccccc1)Oc1ccccc1 | inactive: 14.7%
O=P(Nc1nccs1)(c1ccccc1)c1nc2ccccc2s1 (centres undefined) | inactive: -2.36%
CCOP1(=S)c2c(C)nn(CCC#N)c2N=C(c2ccccc2F)N1C (centres undefined) | inactive: 3.96%
O=[N+]([O-])c1ccc2c(c1)nnn2O | inactive: -10.6%
CCOP1(=S)c2c(C)nn(CCC#N)c2N=C(c2ccc(F)cc2)N1C (centres undefined) | inactive: -4.79%
